Results: ChEMBL document CHEMBL4321832 (J Med Chem, 2019)
The source made the active and inactive calls. No cut-off for these calls is given here.

Species on record: Homo sapiens
Assay: Inhibition of human CYP51 T314I mutant expressed in Escherichia coli at inhibitor/enzyme ratio 50/1 incubated for 1 hr using [3H] lanosterol as substrate by HPLC analysis

Compound | inhibition
O=C(N[C@@H](Cn1ccnc1)c1ccc(Cl)cc1Cl)c1ccc(-c2nnc(-c3cccc(N4CCOCC4)c3)o2)cc1 | Active
O=C(N[C@@H](Cn1ccnc1)c1ccc(Cl)cc1Cl)c1ccc(-c2nnc(-c3ccc(F)c(F)c3)o2)cc1 | Active
O=C(N[C@@H](Cn1ccnc1)c1ccc(Cl)cc1Cl)c1ccc(-c2nnc(-c3cc(F)cc(OCC(F)(F)F)c3)o2)cc1 | Active
O=C(N[C@@H](Cn1ccnc1)c1ccc(Cl)cc1Cl)c1ccc(-c2nnc(-c3cc(-c4ccccn4)ccc3F)o2)cc1 | Active
O=C(N[C@@H](Cn1ccnc1)c1ccc(Cl)cc1Cl)c1ccc(-c2nnc(-c3cc(F)cc(-c4ccccn4)c3)o2)cc1 | Active
O=C(N[C@@H](Cn1ccnc1)c1ccc(Cl)cc1Cl)c1ccc(-c2nnc(-c3cc(F)cc(-c4ncncc4F)c3)o2)cc1 | Active

Species on record: Homo sapiens
Assay: Binding affinity to human CYP51 T314I mutant expressed in Escherichia coli assessed as decrease in demethylation incubated for 1 min

Compound | Activity
CC(C)=CCC[C@@H](C)[C@H]1CC[C@@]2(C)C3=C(CC[C@]12C)[C@@]1(C)CC[C@H](O)C(C)(C)[C@@H]1CC3 | Active
C=C(CC[C@@H](C)[C@H]1CC[C@@]2(C)C3=C(CC[C@]12C)[C@@]1(C)CC[C@H](O)[C@@H](C)[C@@H]1CC3)C(C)C | Active
C=C(CC[C@@H](C)[C@H]1CC[C@@]2(C)C3=C(CC[C@]12C)[C@@]1(C)CC[C@H](O)C(C)(C)[C@@H]1CC3)C(C)C | Active
